# Numbering of substitutions follows the chain as printed. In names and notes the source's numbering stands.
# Amino acid sequences for entries named in this document (tags omitted). Chains listed by the source or under a name are the forms on record and can include a tag or linker.
# UniProt P15692, other isoform, or with tags, fused parts or gaps limits assumed: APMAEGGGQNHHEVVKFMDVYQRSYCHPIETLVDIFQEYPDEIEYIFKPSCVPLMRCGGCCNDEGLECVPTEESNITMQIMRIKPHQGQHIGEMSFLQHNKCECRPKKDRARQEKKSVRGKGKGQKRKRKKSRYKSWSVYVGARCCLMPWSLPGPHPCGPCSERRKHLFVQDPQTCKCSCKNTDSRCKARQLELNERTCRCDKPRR
# B1: G6.31 LC-M4Q (Fab, V domains shown)
# VH: EVQLVESGGGLVQPGGSLRLSCAASGFTISDYWIHWVRQAPGKGLEWVAGITPAGGYTYYADSVKGRFTISADTSKNTAYLQMNSLRAEDTAVYYCARFVFFLPYAMDYWGQGTLVTVSS
# VL: DIQQTQSPSSLSASVGDRVTITCRASQDVSTAVAWYQQKPGKAPKLLIYSASFLYSGVPSRFSGSGSGTDFTLTISSLQPEDFATYYCQQGYGNPFTFGQGTKVEIK
# notes: Fab
# B2: G6.31 LC-S9Q (Fab, V domains shown)
# VH: B1 VH
# VL: B1 VL with Q4M, S9Q
# notes: Fab
# B3: G6.31 LC-S12M (Fab, V domains shown)
# VH: B1 VH
# VL: B1 VL with Q4M, S12M
# notes: Fab
# B4: G6.31 HC-S7L (Fab, name in Kabat numbering, V domains shown)
# VH: B1 VH with S7L
# VL: B1 VL with Q4M
# notes: Fab
# B5: G6.31 WT (Fab, V domains shown)
# VH: B1 VH
# VL: B1 VL with Q4M
# notes: also called wild-type G6.31
# B6: G6.31 HC-G8E (Fab, name in Kabat numbering, V domains shown)
# VH: B1 VH with G8E
# VL: B1 VL with Q4M
# notes: Fab
# B7: G6.31 HC-G16E (Fab, name in Kabat numbering, V domains shown)
# VH: B1 VH with G16E
# VL: B1 VL with Q4M
# notes: Fab
# B8: G6.31 HC-L11E (Fab, name in Kabat numbering, V domains shown)
# VH: B1 VH with L11E
# VL: B1 VL with Q4M
# notes: Fab
# B9: G6.31 HC-L11R (Fab, name in Kabat numbering, V domains shown)
# VH: B1 VH with L11R
# VL: B1 VL with Q4M
# notes: Fab
# B10: G6.31 HC-Q105E (Fab, name in Kabat numbering, V domains shown)
# VH: B1 VH with Q112E
# VL: B1 VL with Q4M
# notes: Fab
# B11: G6.31 HC-S7E (Fab, name in Kabat numbering, V domains shown)
# VH: B1 VH with S7E
# VL: B1 VL with Q4M
# notes: Fab
# B12: G6.31 HC-T107E (Fab, name in Kabat numbering, V domains shown)
# VH: B1 VH with T114E
# VL: B1 VL with Q4M
# notes: Fab
# B13: G6.31 HC-V2E (Fab, name in Kabat numbering, V domains shown)
# VH: B1 VH with V2E
# VL: B1 VL with Q4M
# notes: Fab
# B14: G6.31 LC-A13E (Fab, V domains shown)
# VH: B1 VH
# VL: B1 VL with Q4M, A13E
# notes: Fab
# B15: G6.31 LC-A13R (Fab, V domains shown)
# VH: B1 VH
# VL: B1 VL with Q4M, A13R
# notes: Fab
# B16: G6.31 LC-G16K (Fab, V domains shown)
# VH: B1 VH
# VL: B1 VL with Q4M, G16K
# notes: Fab
# B17: G6.31 LC-S7E (Fab, V domains shown)
# VH: B1 VH
# VL: B1 VL with Q4M, S7E
# notes: Fab
# B18: G6.31 LC-S9E (Fab, V domains shown)
# VH: B1 VH
# VL: B1 VL with Q4M, S9E
# notes: Fab
# B19: G6.31 LC-S10E (Fab, V domains shown)
# VH: B1 VH
# VL: B1 VL with Q4M, S10E
# notes: Fab
# B20: G6.31 LC-S12E (Fab, V domains shown)
# VH: B1 VH
# VL: B1 VL with Q4M, S12E
# notes: Fab
# B21: G6.31 LC-T20E (Fab, V domains shown)
# VH: B1 VH
# VL: B1 VL with Q4M, T20E
# notes: Fab
# B22: G6.31 HC-S5E (Fab, V domains shown)
# VH: B1 VH with V5E
# VL: B1 VL with Q4M
# B23: G6.31 HC-Q13M (Fab, name in Kabat numbering, V domains shown)
# VH: B1 VH with Q13M
# VL: B1 VL with Q4M
# notes: Fab
# B24: G6.31 LC-Q3A (Fab, V domains shown)
# VH: B1 VH
# VL: B1 VL with Q3A, Q4M
# notes: Fab
# B25: G6.31 LC-S7Q (Fab, V domains shown)
# VH: B1 VH
# VL: B1 VL with Q4M, S7Q
# notes: Fab
# B26: G6.31 LC-T22D (Fab, V domains shown)
# VH: B1 VH
# VL: B1 VL with Q4M, T22D
# notes: Fab
# B27: G6.31 AARR (Y58R.N94A.N82aR.F83A) (Fab, V domains shown)
# VH: B1 VH with Y59R, N84R
# VL: DIQMTQSPSSLSASVGDRVTITCRASQDVSTAVAWYQQKPGKAPKLLIYSASFLYSGVPSRFSGSGSGTDFTLTISSLQPEDAATYYCQQGYGAPFTFGQGTKVEIKR
# notes: Fab; also called N94A.F83A.N82aR.Y58R
# Molecular target: T1, human VEGF (hVEGF) (human, UniProt P15692 181-395)
# T1 construct: also called VEGF-A
# Experiment: BIACORE SPR on immobilised hVEGF; label beside the mutation on the structure of the VEGF-bound G6 Fab (PDB 2FJG)
row,Binder,fold change in binding affinity (Kd) compared to G6.31 [x]
1,B1,1
2,B2,4
3,B3,2

# Molecular target: T1, human VEGF (hVEGF)
# Experiment: as above
# Remark: another data set of the same source
row,Binder,fold change in binding affinity (Kd) compared to G6.31 [x]
1,B4,2

# Molecular target: T1, human VEGF (hVEGF)
# Experiment: SPR single-cycle;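 on Fold change (relative to G6.31): fab variants injected over hVEGF immobilized on a CM5 chip (Biacore T200), threefold dilution series from 0.02 to 50 nM, kinetics fitted with a 1:1 Langmuir model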
Binder,Kd [nM],koff [s⁻¹],kon [M⁻¹ s⁻¹],Fold change (relative to G6.31) [fold]
B5,1.7,0.000513,301000,–
B6,0.693,0.000455,657000,2.5
B7,0.622,0.000454,730000,2.7
B8,0.901,0.000507,563000,1.9
B9,0.488,0.000435,890000,3.5
B10,4.24,0.000463,109000,0.4
B11,0.501,0.000381,761000,3.4
B12,1.43,0.000594,416000,1.2
B13,1.32,0.000395,300000,1.3
B14,0.817,0.000394,483000,2.1
B15,1.41,0.000458,325000,1.2
B16,1.43,0.000446,311000,1.2
B17,1.24,0.000443,356000,1.4
B18,0.368,0.000457,1.24e+06,4.6
B19,1.63,0.000429,263000,1
B20,2.27,0.000458,201000,0.7
B21,1.86,0.000457,246000,0.9
B22,0.576,0.000454,788000,3

# Molecular target: T1, human VEGF (hVEGF)
# Experiment: SPR single-cycle;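 on Fold change (relative to G6.31): fab variants injected over hVEGF immobilized on a CM5 chip (Biacore T200), threefold dilution series from 0.02 to 50 nM, kinetics fitted with a 1:1 Langmuir model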
# Remark: another data set of the same source
Binder,Kd [nM],koff [s⁻¹],kon [M⁻¹ s⁻¹],Fold difference (relative to G6.31) [fold]
B5,1.54,0.000686,445000,–
B23,0.41,0.000519,1.26e+06,3.8
B4,0.77,0.000568,736000,2
B16,0.97,0.000356,367000,1.6
B1,1.11,0.000657,593000,1.4
B24,0.92,0.000359,389000,1.7
B25,0.92,0.000671,731000,1.7
B2,0.44,0.000655,1.47e+06,3.5
B3,0.76,0.000679,894000,2
B26,0.72,0.000348,487000,2.1

# Molecular target: T1, human VEGF (hVEGF)
# Experiment: SPR
Binder,Kd [nM],koff [s⁻¹],kon [M⁻¹ s⁻¹],Fold improved (relative to WT) [fold]
B5,0.525,0.000395,754000,–
B27,0.08,0.00032,4e+06,6.6

# Molecular target: VEGF (as used in the HUVEC migration assay) (Homo sapiens (Human), UniProt P15692 181-395)
# Experiment: cell-based or functional assay
row,Binder,"IC50 relative to G6.31, VEGF-induced HUVEC migration [fold]"
1,B5,1
2,B27,0.5

# Molecular target: T1, human VEGF (hVEGF)
# Experiment: SPR multiple-cycle
Binder,Kd [nM],koff [s⁻¹],kon [M⁻¹ s⁻¹]
B5,0.525,0.000395,754000

# Molecular target: T1, human VEGF (hVEGF)
# Experiment: SPR
# Remark: another data set of the same source
Binder,Kd [nM],koff [s⁻¹],kon [M⁻¹ s⁻¹]
B5,0.599,0.000599,999000

# Molecular target: T1, human VEGF (hVEGF)
# Experiment: SPR
# Remark: another data set of the same source
Binder,Kd [nM],koff [s⁻¹],kon [M⁻¹ s⁻¹]
B5,0.525,0.000395,754000
B27,0.135,0.000301,2.22e+06

# — patent US20210115124A1 (Genentech, published 2021)
